IC50 data for 1 substance are collected here from patent EP0461869A2, “Chemotherapeutic agents” (MERCK & CO. INC., priority 1990, dated 1991).

Amino acid sequences for entries named in this document (tags omitted).
UniProt P49355, whole entry: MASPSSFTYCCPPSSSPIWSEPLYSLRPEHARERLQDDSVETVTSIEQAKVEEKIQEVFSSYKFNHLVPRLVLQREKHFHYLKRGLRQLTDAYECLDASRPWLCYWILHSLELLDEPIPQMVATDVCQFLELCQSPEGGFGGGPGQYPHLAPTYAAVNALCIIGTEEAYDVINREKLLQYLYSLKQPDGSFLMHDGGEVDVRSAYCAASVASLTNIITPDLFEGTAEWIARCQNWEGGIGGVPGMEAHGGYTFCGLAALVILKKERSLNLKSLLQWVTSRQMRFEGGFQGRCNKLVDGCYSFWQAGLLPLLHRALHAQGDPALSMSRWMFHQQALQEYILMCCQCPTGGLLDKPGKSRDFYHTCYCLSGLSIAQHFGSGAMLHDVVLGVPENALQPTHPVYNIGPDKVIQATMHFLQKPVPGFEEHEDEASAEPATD

The experiment has as its target T1, Farnesyl-protein transferase from bovine brain (partially purified enzyme preparation) (Bos taurus, UniProt P29702+P49355).
T1 construct: the indicated compounds were incubated with this partially purified enzyme preparation; from tissue; host or cells: bovine brain; chromatographed on DEAE-Sephacel and N-octyl agarose
The experiment is described as follows: Competition of Ras farnesylation by polyisoprenoids and peptides (Hepes-buffered assay, immunoprecipitation and nitrocellulose filtration). Particulars: [Leu68]RAS1(term.)CVLS at 1 µM, 0.5 µM [3H]FPP, 10 min at 24° C; average of 2-5 determinations; >> = no competition at the highest concentration tested. It counts as biochemical.

Usually IC50 stands for the concentration at which inhibition is half-maximal. Read a low IC50 as greater potency in that assay.

In the case of Cys-Val-Ile-Met [CVIM], the IC50 is 90 nM.
